Test results published in article PMC12261228 (ACS Pharmacology & Translational Science, 2025).

How the values were obtained:
[1] = test system: CEM-DNR; experiment: MTS cytotoxicity assay, 72 h; assay type: cell-based; settings: read-out: IC50 CEM-DNR, daunorubicin-resistant, 3-day incubation, mean ± SD
[2] = test system: K562-TAX; experiment: MTS cytotoxicity assay, 72 h; assay type: cell-based; settings: read-out: IC50 K562-TAX, paclitaxel-resistant, 3-day incubation, mean ± SD
[3] = test system: panel of cell lines; settings: for RI (resistance index): (IC50 of CEM-DNR, K562-TAX)/(IC50 of CCRF-CEM, K562); for SI (selectivity index): (mean IC50 of BJ and MRC-5)/(mean IC50 of CCRF-CEM, K562, HCT116, HCT116p53–/–, U2OS)

| SMILES | IC50 [1] [µM] | IC50 [2] [µM] | RI (resistance index) [3] | SI (selectivity index) [3] |
| --- | --- | --- | --- | --- |
| COc1cc2c(c(OC)c1OC)-c1ccc(OC)c(=O)cc1[C@@H](n1cc(CCCC3=C4C(C)=CC(C)=[N+]4[B-](F)(F)n4c(C)cc(C)c43)nn1)CC2 [CB4] | 0.36 | 0.19 | 5.05 | > 533 |
| COc1cc(C2=C3C(C)=CC(C)=[N+]3[B-](F)(F)n3c(C)cc(C)c32)ccc1OCc1cn([C@H]2CCc3cc(OC)c(OC)c(OC)c3-c3ccc(OC)c(=O)cc32)nn1 [CB6] | 0.5 | – | 5.30 | > 172 |
